# From ChEMBL document CHEMBL2034935, “Discovery of a Novel Series of CRTH2 (DP2) Receptor Antagonists Devoid of Carboxylic Acids” (ACS Med Chem Lett, 2011)
# Legend:
# [1] = biological target: T1, Prostaglandin D2 receptor 2 (Homo sapiens, UniProt Q9Y5Y4); test: Displacement of [3HPGD2 from human CRTH2 receptor expressed in CHO cell membrane after 90 mins by scintillation proximity assay; type: cell membranes
# T1 sequence (Q9Y5Y4 whole entry): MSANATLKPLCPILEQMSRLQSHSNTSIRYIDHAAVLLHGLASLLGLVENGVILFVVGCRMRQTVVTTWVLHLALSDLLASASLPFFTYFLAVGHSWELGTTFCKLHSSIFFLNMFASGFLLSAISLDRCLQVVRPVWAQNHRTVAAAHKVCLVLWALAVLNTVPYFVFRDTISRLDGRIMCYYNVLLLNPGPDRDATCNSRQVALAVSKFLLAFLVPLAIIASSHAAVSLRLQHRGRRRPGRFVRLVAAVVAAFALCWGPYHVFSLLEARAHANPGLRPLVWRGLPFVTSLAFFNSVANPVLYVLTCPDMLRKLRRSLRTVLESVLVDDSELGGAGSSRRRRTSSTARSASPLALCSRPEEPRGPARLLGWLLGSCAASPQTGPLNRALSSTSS
# [2] = biological target: T1, Prostaglandin D2 receptor 2; test: Antagonist activity at human CRTH2 receptor expressed in CHO cell membrane assessed as inhibition of PGD2-induced [35S]GTPgammaS binding after 30 mins by microbeta scintillation counting; type: functional, cell membranes
smiles,measurement,setting,value
CCC(=O)N(Cc1cccc(O)c1)c1cc(F)cc(-c2nnn[nH]2)c1,Ki,[1],26 nM
same,IC50,[2],85 nM
